AlphaSeq binding of Ab-14 heavy chain variants to a spike HR2 peptide

Data: MIT Lincoln Laboratory AlphaSeq set, Engelhart et al. 2022, doi:10.1038/s41597-022-01779-4, as distributed in FLAb.

All variants were tested on one target, the spike HR2 peptide PDVDLGDISGINAS (SARS-CoV-2).

Each scFv is VH, a 15-residue (Gly4Ser)3 linker, VL, as in the parent Ab-14, and differs from it in the CDRs of the heavy chain only.
VH: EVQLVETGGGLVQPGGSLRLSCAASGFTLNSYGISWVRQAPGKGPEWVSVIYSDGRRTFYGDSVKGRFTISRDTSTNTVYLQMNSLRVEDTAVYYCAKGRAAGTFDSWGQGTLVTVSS
VL: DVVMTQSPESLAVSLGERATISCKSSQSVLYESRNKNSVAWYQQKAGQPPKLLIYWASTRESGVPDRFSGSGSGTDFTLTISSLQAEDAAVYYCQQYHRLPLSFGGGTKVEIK

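The library (AAYL49) carries one to three amino acid substitutions per variant, with no insertions or deletions. The assay is AlphaSeq: two haploid yeast populations carry antibody and antigen on their surface. After mating in shaken culture at 30 °C for 16 h, diploids were selected and their barcode pairs sequenced. The ratio of observed to expected reads was calibrated, replicate by replicate, on BCL2-family standards whose Kd was known from biolayer interferometry. The assay was run in three technical replicates.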

Changes read parent residue, position, new residue, counted from the first residue of the VH shown.
Values are log10 of the apparent Kd in nM; lower means stronger binding.
Averages over replicates are reported, and they cover detected replicates only.
An entry "n.d." has no value in the source: the pair was not observed among the diploids in that replicate. This suggests poor binding but is not conclusive.
Nonspecific signal, from three strains lacking the peptide, appeared in 15% of pairings of library AAYL49, centred on 4.06 (5% of these signals below 2.83); values are not corrected for it. Also given: how often the same scFv was detected with the empty control strains, with their mean in brackets.

changes	log10 Kd (nM) by replicate	mean log10 Kd (nM)	control signals
F59A+D62K+S63G	n.d. n.d. n.d.	n.d.	0/9
L29S+I34P+R56Y	4.71 n.d. n.d.	4.71	6/9 (4.66)
Y52G+R56D+K65A	n.d. n.d. n.d.	n.d.	1/9 (1.78)
R57I+S63W+G99T	n.d. n.d. n.d.	n.d.	0/9
N30H+D62S+R100V	2.61 2.37 2.42	2.47	0/9
R56P+F59P+G99Y	4.86 n.d. n.d.	4.86	2/9 (3.72)
I51S+G99T+T104A	n.d. 4.58 n.d.	4.58	0/9
F27D+I51E+T58H	n.d. n.d. n.d.	n.d.	2/9 (3.46)
S31G+R56S+D62G	3.21 3.69 4.63	3.84	2/9 (3.18)
V64T+G99A+F105Q	3.20 2.92 4.52	3.55	4/9 (4.49)
T28F+G61L	2.11 2.06 1.99	2.05	0/9
G55A+R57E+A101K	n.d. n.d. n.d.	n.d.	0/9
F27Q	1.51 1.68 1.25	1.48	5/9 (5.45)
N30P+Y52D+F105Q	n.d. 3.31 n.d.	3.31	2/9 (3.49)
T28S+F59C+F105C	n.d. n.d. n.d.	n.d.	1/9 (4.74)
T28G+S31D+F59H	0.25 0.59 0.48	0.44	6/9 (5.31)
I51C+S63T+K65E	4.00 4.38 n.d.	4.19	0/9
L29I+T58C+G103R	n.d. n.d. n.d.	n.d.	1/9 (4.80)
Y32D+Y52V+G61A	n.d. n.d. n.d.	n.d.	2/9 (4.62)
Y32S+R57A+V64L	n.d. n.d. n.d.	n.d.	2/9 (2.97)
S31N+Y60K+D106V	n.d. 2.18 n.d.	2.18	0/9
G26T+D62V+T104N	n.d. n.d. n.d.	n.d.	1/9 (4.44)
F27I+I34G+I51W	5.19 n.d. n.d.	5.19	1/9 (4.72)
T28R+R57P+G99I	n.d. n.d. n.d.	n.d.	0/9
T28L+S35Y+D54P	n.d. n.d. n.d.	n.d.	1/9 (5.72)
T28H+S35R+F105Q	n.d. n.d. n.d.	n.d.	0/9
L29P+G55T+T58P	n.d. 5.59 4.03	4.81	5/9 (4.07)
G33F+V64N+R100Y	n.d. n.d. n.d.	n.d.	2/9 (4.77)
S35Y+Y60E+S107R	n.d. n.d. n.d.	n.d.	0/9
N30S+K65S+S107V	3.76 2.78 2.68	3.07	0/9
R57W+G103H+F105I	n.d. n.d. n.d.	n.d.	2/9 (4.19)
S35L+I51F+K65E	n.d. n.d. n.d.	n.d.	1/9 (2.49)
V50T+Y60R	n.d. n.d. n.d.	n.d.	2/9 (3.94)
F27C+T28P+I34T	n.d. n.d. n.d.	n.d.	3/9 (3.31)
S31Q+R100G+T104P	4.58 n.d. 4.01	4.30	5/9 (3.96)
I51Y+Y52V+R56W	n.d. n.d. 3.02	3.02	3/9 (3.61)
G26E+F59Q+D62P	1.76 1.75 2.26	1.92	2/9 (3.48)
G33H+Y60L+A101F	n.d. n.d. n.d.	n.d.	0/9

Top 4 of the variants detected in all replicates, tightest first:

changes,log10 Kd (nM) by replicate,mean log10 Kd (nM),control signals
T28G+S31D+F59H,0.25 0.59 0.48,0.44,6/9 (5.31)
F27Q,1.51 1.68 1.25,1.48,5/9 (5.45)
G26E+F59Q+D62P,1.76 1.75 2.26,1.92,2/9 (3.48)
T28F+G61L,2.11 2.06 1.99,2.05,0/9